Screens deposited in PubChem by several laboratories.
Most compounds without a hit are left out; they make up all but 4.2% or so of the library.
UUG fidelity – yeast start codon fidelity modulation; AID 602363; activity score, % at 18.7 µM; S. cerevisiae UUG-firefly luciferase reporter, luminescence/redox ratio; 0.13% of 350,000 active;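 active means replicate mean at a twofold rise or more, about +100% in these data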;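 further: firefly luciferase made from a UUG start codon reports start codon fidelity; reporter light over untreated wells divided by growth signal over untreated wells; some hits fall short of that in this replicate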
MC4R ag barr – agonists of human melanocortin 4 receptor (MC4R) beta-arrestin. U2OS MC4R beta-arrestin complementation, luminescence; percent of melanotan II response, DMSO zero. activation, % at 8.9 µM. 360,000 tested, 0.98% active;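 active means activation above a per-plate cutoff, the mean activation of sample wells on that plate plus 3 SD, cut at about 8% in these data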
MC4R antag cAMP – human MC4R antagonism in cAMP assay | MC4R-expressing cells, MTII-stimulated cAMP, LANCE TR-FRET | inhibition, % at 6.5 µM | 360,000 tested, 0.48% active | AID 540295;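 active means inhibition above its plate's cutoff, the mean of tested wells on that plate plus 3 SD, cut at about 29% in these data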;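 further: 0% = Melanotan II alone and 100% = Melanotan II plus saturating MCL0020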
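Material: U2OS-MC4R stable cell line | Reagent: Melanotan II challenge after compound preincubation | Doses: One concentration, 6.5 µM nominal | Incubation: 30-min compound preincubation, 1-h Melanotan II challenge, 1-h detection, room temperature | Signal: TR-FRET cAMP assay | Replicates: One well per compound, no replicates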
ALR inh – inhibitors of human ALR sulfhydryl oxidase, primary screen, biochemical, H2O2 detection, HRP-luminol luminescence, single point. 290,000 compounds, 3.8% hits. inhibition, % (concentration not given with the values). purified ALR, DTT oxidation. AID 485317, 2010;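 active means mean and each replicate at 75% or more; inconclusive means only one of the two met; inactive means neither met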;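 further: stock transfer was 7.5 nL into about 7.5 µL; 0% = neutral wells and 100% = wells with inactivated enzyme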
NALP1 yeast inh – NALP1 inhibition | S. cerevisiae NALP1/ASC/caspase-1 growth, X-gal OD620, 72 h | 280,000 tested, 0.61% active | inhibition, % at 10 µM; in the data active means inhibition mostly above about 24%, no sharp cut-off; inactive means mostly below about 32%
HDAC3 inh – inhibitors of human histone deacetylase 3; O15379; 320,000 tested, 0.15% active; inhibition, % at 8.3 µM; recombinant HDAC3, fluorogenic peptide/trypsin coupled, fluorescence; AID 2718; in the data active means inhibition above about 26%, passing the limit was not always enough; inconclusive means no clear call, values can overlap the other calls
* marks the source's active call; other numbers are inactive results; ? = inconclusive; nt = not tested or not shown.

Letters: A = UUG fidelity; B = MC4R ag barr; C = MC4R antag cAMP; D = ALR inh; E = NALP1 yeast inh; F = HDAC3 inh
1: COc1ccc(NC2CCCN(C(=O)CCN3Cc4ccccc4C3=O)C2)cc1 (stereo not given)
  A = -7.2 | B = -2.3 | C = 3.9 | D = 99.0* | E = 5.8 | F = 4.6
2: COc1ccc(NC2CCCN(C(=O)CCN3CCCC3=O)C2)cc1OC (stereo not given)
  A = -8.1 | B = -3.6 | C = -3.5 | D = 98.9* | E = -6.3 | F = -2.5
3: O=C1CCCCN1CC(=O)N1CCCC(Nc2ccc(F)c(F)c2)C1 (stereo not given)
  A = -0.7 | B = -3.2 | C = 6.6 | D = 25.5 | E = 13.3 | F = -5.1
4: O=C1CCCCN1CCC(=O)N1CCCC(Nc2ccc(F)c(F)c2)C1 (stereo not given)
  A = -14.4 | B = -1.2 | C = 15.8 | D = 21.3 | E = 22.4 | F = 3.3
5: O=C1CCCN1CCC(=O)N1CCCC(Nc2ccc(F)cc2)C1 (stereo not given)
  A = -3.7 | B = -1.6 | C = 0.3 | D = 46.3 | E = -0.2 | F = 5.4
6: C[C@H](CO)N1C[C@H](C)[C@@H](CN(C)C(=O)Nc2ccccc2)Oc2ccc(NC(=O)Cn3cnnn3)cc2CC1=O
  A = 8.7 | B = nt | C = nt | D = nt | E = nt | F = nt
7: COC(=O)C[C@@H]1C=C[C@H](NS(=O)(=O)c2ccccc2F)[C@H](CO)O1
  A = -13.9 | B = nt | C = nt | D = nt | E = nt | F = nt
8: CC(=O)N(C)C[C@@H]1Oc2cc(C3=CCCC3)ccc2S(=O)(=O)N([C@@H](C)CO)C[C@@H]1C
  A = 12.4 | B = nt | C = nt | D = nt | E = nt | F = nt
9: CC(C)c1ccc(NC2CCCN(C(=O)CN3CCCCC3=O)C2)cc1 (stereo not given)
  A = -8.7 | B = 1.2 | C = -0.4 | D = nt | E = nt | F = nt
10: COc1ccc(NC2CCCN(C(=O)CCCN3CCCCC3=O)C2)cc1 (stereo not given)
  A = 2.5 | B = -1.8 | C = -5.0 | D = 98.7* | E = 19.3 | F = 3.0
11: CCOC(=O)c1cc(NC(=O)N(C(C)C)C(C)C)c(C)nc1C
  A = -32.9 | B = 0.0 | C = 0.7 | D = -44.6 | E = 12.4 | F = 2.9
12: CCOC(=O)c1cc(NC(=O)N(CC)CC)c(C)nc1C
  A = -9.0 | B = -1.3 | C = 2.8 | D = -1.2 | E = 37.2* | F = 3.3
13: C/C=C/c1ccc([C@@H]2[C@H](CO)N(C(=O)CC)[C@H]2CNC(=O)CC2CC2)cc1
  A = -11.1 | B = nt | C = nt | D = nt | E = nt | F = nt
14: O=Cc1cccc(OC(=O)/C=C/c2ccco2)c1
  A = -1.0 | B = -1.3 | C = -7.3 | D = 98.2* | E = 7.8 | F = 3.8
15: COC(=O)c1ccc(OC(=O)/C=C/c2ccco2)cc1
  A = -41.3 | B = -1.8 | C = 9.0 | D = nt | E = 12.8 | F = 15.2
16: COc1ccc(C(=O)Nc2ccc3c(c2)OC[C@H](C)NC[C@H](C)[C@H](OC)CN(C)C3=O)cc1
  A = -12.5 | B = nt | C = nt | D = nt | E = nt | F = nt
17: CC(=O)NC(c1cc(Cl)c2ccccc2c1O)C(C)C (stereo not given)
  A = -15.2 | B = -0.5 | C = 5.3 | D = 93.6* | E = nt | F = 1.2
18: CC(=O)NC(c1cc(Cl)c2cccnc2c1O)C(C)C (stereo not given)
  A = -42.0 | B = -1.5 | C = 2.9 | D = ? | E = nt | F = -0.5
19: Cc1cc(OC(=O)CNC(=O)OC(C)(C)C)c2c(C)cc(=O)oc2c1
  A = -7.5 | B = -0.9 | C = -19.9 | D = 90.8* | E = -29.6 | F = 3.3
20: C[C@@H]1CN([C@@H](C)CO)C(=O)c2cccc(NC(=O)NC3CCCCC3)c2O[C@H]1CN(C)Cc1ccc(C(F)(F)F)cc1
  A = 4.0 | B = nt | C = nt | D = nt | E = nt | F = nt
21: CCCCCCN(C(=O)CCl)c1ccccc1
  A = -5.4 | B = 18.3* | C = 8.0 | D = -3.3 | E = 16.1 | F = 2.0
22: Cc1cccc(N(Cc2cc(=O)[nH]c3ccccc23)C(=O)CCl)c1
  A = nt | B = 3.8 | C = -0.5 | D = -4.9 | E = 4.7 | F = 0.0
23: CCCCCCCN(C(=O)CCl)c1cccc(C)c1
  A = 3.2 | B = 9.0* | C = 3.6 | D = 47.3 | E = 25.8 | F = -1.0
24: COc1ccc(-c2cc3ccccc3n2CC(O)CN2CCN(CCO)CC2)cc1 (stereo not given)
  A = 8.0 | B = 1.5 | C = 12.1 | D = 96.5* | E = 7.3 | F = -24.8
25: COc1ccc(-c2cc3ccccc3n2CC(O)CN2CCOCC2)cc1 (stereo not given)
  A = 7.5 | B = -1.1 | C = -0.7 | D = -4.2 | E = 24.2 | F = -25.2
26: CCN(CC)c1ccc(/C=N/NC(=O)C2CC2)cc1
  A = 4.5 | B = -1.4 | C = -6.2 | D = 99.9* | E = 36.2 | F = -3.6
27: CCN(CC)c1ccc(/C=N/NC(=O)C(O)c2ccccc2)cc1 (stereo not given)
  A = -26.1 | B = 0.1 | C = 8.4 | D = 100.0* | E = -15.9 | F = -17.9
28: O=C(N/N=C/c1ccc(O)c(O)c1)C1CC1
  A = -12.4 | B = -0.5 | C = 0.8 | D = 99.1* | E = nt | F = 12.1
29: CCN(CC)c1ccc(/C=N/NC(=O)Nc2nonc2N)cc1
  A = nt | B = 2.5 | C = -4.7 | D = 98.5* | E = 21.3 | F = 5.0
30: O=C(N/N=C/c1ccccc1)C(O)c1ccccc1 (stereo not given)
  A = -16.0 | B = 0.2 | C = -0.2 | D = -10.4 | E = 0.9 | F = 0.6
31: C[C@@H]1CN([C@@H](C)CO)C(=O)c2cc(NC(=O)c3ccccc3)ccc2O[C@@H](C)CCCCO[C@H]1CN(C)Cc1ccc(C(F)(F)F)cc1
  A = 23.8 | B = nt | C = nt | D = nt | E = nt | F = nt
32: COc1ccc(CN(C)C[C@@H]2OCCCC[C@H](C)Oc3ccc(NS(=O)(=O)c4ccc(F)cc4)cc3C(=O)N([C@H](C)CO)C[C@@H]2C)cc1
  A = 21.0 | B = nt | C = nt | D = nt | E = nt | F = nt
33: Cc1c(Cl)cccc1NC(=O)CSc1nc(=O)n(CCCN2CCOCC2)c2c1CCC2
  A = -17.9 | B = -0.8 | C = -3.5 | D = 94.4* | E = nt | F = -2.9
34: O=C(CSc1nc(=O)n(CCCN2CCOCC2)c2c1CCCC2)Nc1ccc(F)cc1F
  A = -4.2 | B = -2.8 | C = 5.9 | D = -6.1 | E = nt | F = 2.8
35: CC(C)c1ccc(NC(=O)CSc2nc(=O)n(CCCN3CCOCC3)c3c2CCCC3)cc1
  A = 20.8 | B = 2.1 | C = 5.5 | D = 99.0* | E = nt | F = 2.8
36: CC(C)c1ccc(NC(=O)CSc2nc(=O)n(CCCN3CCOCC3)c3c2CCC3)cc1
  A = 0.7 | B = -1.2 | C = -6.2 | D = 98.5* | E = nt | F = 3.6
37: CC(C)c1ccc(NC(=O)CSc2nnc(CN3CCOCC3)n2C)cc1
  A = 0.7 | B = -0.1 | C = 9.4 | D = 98.3* | E = -14.0 | F = -3.6
38: Cc1ccc(NC(=O)CSc2nnc(CN3CCOCC3)n2C)cc1C
  A = nt | B = -1.3 | C = 22.2 | D = nt | E = 25.8 | F = -14.3
39: COc1ccccc1NC(=O)N(C)C[C@H]1Oc2ncc(Br)cc2C(=O)N([C@@H](C)CO)C[C@H]1C
  A = 21.6 | B = nt | C = nt | D = nt | E = nt | F = nt
40: COc1ccc(S(=O)(=O)Nc2ccc3c(c2)C(=O)N([C@H](C)CO)C[C@@H](C)[C@@H](CN(C)C(=O)Cc2ccccc2)OCCCC[C@H](C)O3)cc1
  A = 13.6 | B = nt | C = nt | D = nt | E = nt | F = nt
41: O=C(CSc1nc(=O)n(CCCN2CCOCC2)c2c1CCCC2)Nc1cccc([N+](=O)[O-])c1
  A = -30.6 | B = -2.9 | C = 0.3 | D = 4.7 | E = nt | F = -0.3
42: O=C(CSc1nc(=O)n(CCCN2CCOCC2)c2c1CCCC2)Nc1ccccc1Cl
  A = -14.4 | B = 1.0 | C = 15.2 | D = -4.4 | E = nt | F = -1.6
43: O=C(CSc1nc(=O)n(CCCN2CCOCC2)c2c1CCC2)Nc1ccc([N+](=O)[O-])cc1
  A = -13.2 | B = -2.9 | C = 12.4 | D = 98.2* | E = nt | F = 1.2
44: O=C(CSc1nc(=O)n(CCCN2CCOCC2)c2c1CCCC2)Nc1ccc(Cl)cc1
  A = -4.5 | B = -2.5 | C = 5.9 | D = 96.0* | E = nt | F = 3.2
45: C/C(CC(=O)Nc1ccc(N(C)C)cc1)=N\NC(=O)c1ccc([N+](=O)[O-])cc1Cl
  A = 0.8 | B = -1.7 | C = 8.4 | D = 99.6* | E = 1.1 | F = 3.3
46: C[C@@H]1CN([C@@H](C)CO)C(=O)c2cc(NC(=O)Nc3ccccc3)ccc2O[C@@H]1CN(C)Cc1ccc(Cl)c(Cl)c1
  A = 3.5 | B = nt | C = nt | D = nt | E = nt | F = nt

Fetched by structure from above (2):
Letters: A = UUG fidelity; B = MC4R ag barr; C = MC4R antag cAMP; D = ALR inh; E = NALP1 yeast inh; F = HDAC3 inh
6: C[C@H](CO)N1C[C@H](C)[C@@H](CN(C)C(=O)Nc2ccccc2)Oc2ccc(NC(=O)Cn3cnnn3)cc2CC1=O
  A = 8.7 | B = nt | C = nt | D = nt | E = nt | F = nt
28: O=C(N/N=C/c1ccc(O)c(O)c1)C1CC1
  A = -12.4 | B = -0.5 | C = 0.8 | D = 99.1* | E = nt | F = 12.1

An excerpt from above, showing only MC4R antag cAMP, ALR inh and MC4R ag barr.
cpd	Compound	MC4R antag cAMP	ALR inh	MC4R ag barr
4	O=C1CCCCN1CCC(=O)N1CCCC(Nc2ccc(F)c(F)c2)C1 (stereo not given)	15.8	21.3	-1.2
28	O=C(N/N=C/c1ccc(O)c(O)c1)C1CC1	0.8	99.1*	-0.5
23	CCCCCCCN(C(=O)CCl)c1cccc(C)c1	3.6	47.3	9.0*
